We go through one compound from ChEMBL document CHEMBL1157641, “Carbonic anhydrase inhibitors. Inhibition of mammalian isoforms I-XIV with a series of natural product polyphenols and phenolic acids” (Bioorg Med Chem, 2010).

By UniProt entry, the sequences of proteins in these tests, tags left out. Where a name states a change or a piece, a line headed by the entry shows the natural chain unless it says otherwise.
UniProt Q9Y2D0: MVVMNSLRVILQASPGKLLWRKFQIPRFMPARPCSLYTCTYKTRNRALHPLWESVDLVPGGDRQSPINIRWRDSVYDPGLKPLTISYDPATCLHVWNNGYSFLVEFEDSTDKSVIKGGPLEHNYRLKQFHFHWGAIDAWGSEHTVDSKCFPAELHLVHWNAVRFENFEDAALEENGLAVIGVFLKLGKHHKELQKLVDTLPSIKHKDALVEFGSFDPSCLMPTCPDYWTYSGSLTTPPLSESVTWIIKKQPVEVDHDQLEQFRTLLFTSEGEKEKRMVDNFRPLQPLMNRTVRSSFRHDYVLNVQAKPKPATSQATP

In assay [1] the target is Carbonic anhydrase 2 (Homo sapiens, UniProt P00918).
Assay [2] has as its target Carbonic anhydrase 5B, mitochondrial (Homo sapiens, UniProt Q9Y2D0).

Regarding `O=C(O)c1ccc(O)cc1` [PARABEN], the values for the Ki in assay [1] and in assay [2] were 0.87 µM and 7.13 µM, respectively.
